The record followed here is article PMC8041708 (European Journal of Nuclear Medicine and Molecular Imaging, 2020).

By UniProt entry, the sequences of proteins in these tests, tags left out. Residues count along the entry.
UniProt P10636, 623-708 limits assumed: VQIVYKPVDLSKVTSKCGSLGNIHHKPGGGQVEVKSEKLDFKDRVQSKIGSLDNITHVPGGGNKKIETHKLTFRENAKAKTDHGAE
UniProt P10636, 623-695 limits assumed: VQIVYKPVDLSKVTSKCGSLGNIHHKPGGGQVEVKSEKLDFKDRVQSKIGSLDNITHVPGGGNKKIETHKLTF

Common to all, as to conditions: tested as the radiolabelled form
Test [1] has as its target T1, tau deposits in AD brain tissue (Homo sapiens, UniProt P10636). In words: Saturation binding assay with ^3H-MK6240 in AD brain homogenates.
For test [2], the target named is T1, tau deposits in AD brain tissue. Nature of the test: Regional distribution of ^3H-MK6240 binding in AD and control brain homogenates.
The target is the same in test [3]. In words: Autoradiography of ^3H-MK6240 on large frozen brain sections.

On to `Nc1c(F)ccc2cnc(-n3ccc4ccncc43)cc12` [MK6240], for which the Bmax in test [1] (parietal cortex of one AD brain (case 1, EOAD)) is listed as 154.7 fmol/mg; in test [1] (temporal cortices of two AD cases, ^3H-MK6240 0.05-2 nM, 90 min, 37 °C) it was 59.2 fmol/mg. The “^3H-MK6240 binding in AD brains versus control brains” value in test [2] (frontal, parietal and temporal cortices and hippocampus, 0.5 nM, p < 0.0001) is listed as “statistically significantly higher”. Also, the “^3H-MK6240 binding in EOAD versus LOAD and control tissue” value in test [2] (frontal, parietal and temporal cortices, p < 0.0001) is recorded as “significantly higher”. In test [2] (seven brain regions of all the control brains, 0.5 nM), the “^3H-MK6240 specific binding in control brains” value is given as “low specific binding”. In addition, the “^3H-MK6240 binding in AD brains” value in test [2] (thalamus, caudate nucleus and cerebellum, 0.5 nM) was “No or low binding”. The Specific binding in test [3] (AD patient A, cingulate gyrus) came to 99.9 fmol/mg tissue; in test [3] (AD patient A, entorhinal cortex), 90.2 fmol/mg tissue; in test [3] (AD patient A, frontal cortex), 109.2 fmol/mg tissue; in test [3] (AD patient A, fusiform gyrus), 119.0 fmol/mg tissue; in test [3] (AD patient A, hippocampus) it was 42.4 fmol/mg tissue; in test [3] (AD patient A, insula) it was 24.0 fmol/mg tissue. For the same compound, the Specific binding in test [3] (AD patient A, temporal cortex) worked out at 49.6 fmol/mg tissue; in test [3] (AD patient B, cingulate gyrus), 64.9 fmol/mg tissue; in test [3] (AD patient B, entorhinal cortex), 128.4 fmol/mg tissue; in test [3] (AD patient B, frontal cortex) it was 45.6 fmol/mg tissue; in test [3] (AD patient B, fusiform gyrus) it was 115.5 fmol/mg tissue; in test [3] (AD patient B, hippocampus), 81.0 fmol/mg tissue. For the same compound, the Specific binding in test [3] (AD patient B, insula) came out at 32.8 fmol/mg tissue; in test [3] (AD patient B, temporal cortex) it was 216.6 fmol/mg tissue. Besides, in test [3] (control, total and NSP sections), the “Binding in control brain section” value is “Almost no binding”.
